The results in this text go back to patent US20220073598A1 (KYMAB, published 2022).

The assay concerns the target T1, recombinant human BMP6 (Peprotech 120-06) (human, UniProt P22004 397-513).
T1 construct: Biotinylated and immobilised for SPR; also called hBMP6; Bone Morphogenetic Protein 6
T1 sequence: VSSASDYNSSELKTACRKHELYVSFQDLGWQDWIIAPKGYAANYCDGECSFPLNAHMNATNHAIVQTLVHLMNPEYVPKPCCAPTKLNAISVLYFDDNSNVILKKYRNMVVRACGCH
The assay is described as follows: HTRF competition, unlabelled antibody titrated; competitor: labelled CL-58838. In general terms: In TR-FRET formats the signal depends on donor and acceptor labels being close together.

B1: CL-58835 (antibody, human IgG4 S228P, kappa, V domains shown)
VH: QVQLVESGGGLVKPGGSLRLSCAASGFTFSDYYMSWIRQAPGKGLEWVSYISISGTTIYYADSVKGRFTISRDNAMDSLYLQMNSLRAEDTAVYYCARRSSGWYDYWGQGTLVTVSS
VL: EIVLTQSPGTLSLSPGERATLSCWASQRVVYRYLAWYQRKPGQAPRLLIYGAFNRATGIPDRFSGSGSGTDFSLTISRLEPEDFAVYYCHQYGSSPPTFGQGTKVEIKR
For the molecule B1, the binding result is “binds”.
